We go through one substance from paper PMC11571031 (Protein Science : A Publication of the Protein Society, 2024).

Common to all, as to assay: purified protein
Common to all, as to details: pH 7.0; 37.0 °C

For data set [1], the system named is O=C(O[C@@H]1Cc2c(O)cc(O)cc2O[C@@H]1c1cc(O)c(O)c(O)c1)c1cc(O)c(O)c(O)c1.
In data set [2] the test system is O=C(O[C@@H]1O[C@H](CO)[C@@H](O)[C@H](O)[C@H]1O)c1cc(O)c(O)c(O)c1.
For the next data set, the system named is COC(=O)c1cc(O)c(O)c(O)c1.

Consider (Clostridium butyricum), for which the values for the Km (in data set [1]; in data set [2]; with COC(=O)c1cc(O)c(O)c(O)c1) were 2280 ± 710 µM, 1340 ± 370 µM and 3000 ± 470 µM, respectively. In addition, the kcat/Km (usually the second-order rate constant that governs catalysis at low substrate concentration) in data set [1] came to 162000 M⁻¹ s⁻¹; in data set [2] it was 52100 M⁻¹ s⁻¹; with COC(=O)c1cc(O)c(O)c(O)c1, 69300 M⁻¹ s⁻¹.
